According to ChEMBL document CHEMBL1125513, “Substituted 1-(aminomethyl)-2-(arylacetyl)-1,2,3,4-tetrahydroisoquinolines: a novel class of very potent antinociceptive agents with varying degrees of selectivity for kappa and mu opioid receptors” (1992):
“And” between values parts separate entries of the source, which are not always exact repeats. Equal entries are not always repeated.

Experiments:
[1] = In vivo antinociceptive activity was determined using mouse tail-flick test following subcutaneous administration
[2] = In vivo antinociceptive activity was determined using mouse abdominal constriction test following subcutaneous administration; conditions: Abdomen
Mus musculus = assay: In vivo antinociceptive activity was determined using mouse hot plate test following subcutaneous administration

Which results are given for Cl.O=C(Cc1ccc(Cl)c(Cl)c1)N1CCc2c(ccc(O)c2O)C1CN1CCCC1 (stereo not drawn)?
ED50 [1]: 1.06 µmol/kg; ED50 [2]: 0.985 µmol/kg

For C[C@@H]1CN(C(=O)Cc2ccc(Cl)c(Cl)c2)[C@@H](CN2CCCC2)c2ccccc21.Cl, which ED50 [1] is on record?
Its ED50 is 0.11 µmol/kg.

What about the ED50 [2] of the same compound?
Its ED50 is 0.086 µmol/kg.

With O=C(Cc1ccc(Cl)c(Cl)c1)N1CCc2ccccc2C1CN1CCCC1 (stereo not drawn) as the compound, how does the ED50 [1] read?
Its ED50 is 0.02 µmol/kg.

What about the ED50 [2] of the same compound?
The ED50 was 0.017 µmol/kg.

Which ED50 [1] does the source give for CC1c2ccccc2C(CN2CCCC2)N(C(=O)Cc2ccc(Cl)c(Cl)c2)C1C.Cl (stereo not drawn) here?
Its ED50 is over 2.5 µmol/kg.

For Cl.O=C(Cc1ccc(Cl)c(Cl)c1)N1CCc2c(F)cccc2C1CN1CCCC1 (stereo not drawn), which ED50 [1] is on record?
The ED50 was 0.265 µmol/kg.

What about the ED50 [2] of the same compound?
Its ED50 is 0.123 µmol/kg.

Which results are given for Cl.O=C(Cc1ccc(Cl)c(Cl)c1)N1CCc2c(O)cccc2C1CN1CCCC1 (stereo not drawn)?
ED50 (Mus musculus): > 0.13 µmol/kg; ED50 [1]: 0.015 µmol/kg; ED50 [2]: 0.005 µmol/kg

With Cl.O=C(Cc1ccc(Cl)c(Cl)c1)N1CCc2c(Cl)cccc2C1CN1CCCC1 (stereo not drawn) as the compound, how does the ED50 [1] read?
The ED50 was 1.94 µmol/kg.

What about the ED50 [2] of the same compound?
The ED50 was over 0.457 µmol/kg.

For C[C@@H]1[C@@H](C)c2ccccc2[C@H](CN2CCCC2)N1C(=O)Cc1ccc(Cl)c(Cl)c1, which ED50 [1] is on record?
Its ED50 is 0.112 µmol/kg.

And the ED50 [2]?
Its ED50 is 0.025 µmol/kg.

With CSc1cccc2c1CCN(C(=O)Cc1ccc(Cl)c(Cl)c1)C2CN1CCCC1.Cl (stereo not drawn) as the compound, how does the ED50 [1] read?
The ED50 was 0.795 µmol/kg.

And the ED50 [2]?
The ED50 was 0.449 µmol/kg.

Which results are given for C[C@@H]1Cc2ccccc2[C@H](CN2CCCC2)N1C(=O)Cc1ccc(Cl)c(Cl)c1.Cl?
ED50 [1]: 0.078 µmol/kg; ED50 [2]: 0.05 µmol/kg

For O=C(Cc1ccc(Cl)c(Cl)c1)N1CCc2ccc(O)cc2C1CN1CCCC1 (stereo not drawn), which ED50 [1] is on record?
Its ED50 is over 2.5 µmol/kg.

Which ED50 [1] does the source give for C[C@@H]1Cc2ccccc2[C@H](CN2CCCC2)N1C(=O)Cc1ccc(Cl)c(Cl)c1 here?
Its ED50 is 0.051 µmol/kg.

What about the ED50 [2] of the same compound?
Its ED50 is 0.024 µmol/kg.

With C[C@@H]1Cc2ccccc2[C@@H](CN2CCCC2)N1C(=O)Cc1ccc(Cl)c(Cl)c1.Cl as the compound, how does the ED50 [1] read?
Its ED50 is over 2.5 µmol/kg.

Which results are given for C[C@H]1CN(C(=O)Cc2ccc(Cl)c(Cl)c2)[C@@H](CN2CCCC2)c2ccccc21.Cl?
ED50 [1]: 1.1 µmol/kg; ED50 [2]: 0.676 µmol/kg

For CC1(C)Cc2ccccc2C(CN2CCCC2)N1C(=O)Cc1ccc(Cl)c(Cl)c1.Cl (stereo not drawn), which ED50 [1] is on record?
Its ED50 is over 2.5 µmol/kg.

Which ED50 [1] does the source give for C[C@@H]1[C@@H](C)c2ccccc2[C@@H](CN2CCCC2)N1C(=O)Cc1ccc(Cl)c(Cl)c1 here?
The ED50 was over 2.5 µmol/kg.

Which ED50 (Mus musculus) does the source give for CN(C(=O)Cc1ccc(Cl)c(Cl)c1)C1CCCCC1N1CCCC1 (stereo not drawn) here?
Its ED50 is over 51.2 µmol/kg.

What about the ED50 [2] of the same compound?
Its ED50 is 1.16 µmol/kg.

With COc1cccc2c1CCN(C(=O)Cc1ccc(Cl)c(Cl)c1)C2CN1CCCC1 (stereo not drawn) as the compound, how does the ED50 [1] read?
Its ED50 is 0.125 µmol/kg.

And the ED50 [2]?
The ED50 was 0.108 µmol/kg.

With C[C@@H]1CN(C(=O)Cc2ccc(Cl)c(Cl)c2)[C@@H](CN2CCCC2)c2ccccc21 as the compound, how does the ED50 [1] read?
Its ED50 is 0.06 µmol/kg.

What about the ED50 [2] of the same compound?
Its ED50 is 0.031 µmol/kg.

For Cc1cccc2c1CCN(C(=O)Cc1ccc(Cl)c(Cl)c1)C2CN1CCCC1.Cl (stereo not drawn), which ED50 [1] is on record?
Its ED50 is 0.827 µmol/kg.

What about the ED50 [2] of the same compound?
Its ED50 is 0.395 µmol/kg.

For O=C(Cc1ccc(Cl)c(Cl)c1)N1CCc2c(O)cccc2C1CN1CCCC1 (stereo not drawn), which ED50 [1] is on record?
Its ED50 is 0.022 µmol/kg.

And the ED50 [2]?
Its ED50 is 0.012 µmol/kg.

With CC1(C)CN(C(=O)Cc2ccc(Cl)c(Cl)c2)C(CN2CCCC2)c2ccccc21.Cl (stereo not drawn) as the compound, how does the ED50 (Mus musculus) read?
The ED50 was over 7.5 µmol/kg.

And the ED50 [1]?
Its ED50 is 0.755 µmol/kg and 1.64 µmol/kg.

And the ED50 [2]?
The ED50 was 0.102 µmol/kg and 0.206 µmol/kg.

Which ED50 [1] does the source give for O=C(Cc1ccc(Cl)c(Cl)c1)N1CCc2cccc(O)c2C1CN1CCCC1 (stereo not drawn) here?
Its ED50 is over 2.5 µmol/kg.

With O=C(Cc1ccc(Cl)c(Cl)c1)N1CCc2cc(O)ccc2C1CN1CCCC1 (stereo not drawn) as the compound, how does the ED50 [1] read?
The ED50 was 0.59 µmol/kg.
